The source of these data is PubChem BioAssay AID927 (National Center for Advancing Translational Sciences (NCATS), 2007).

Protein sequences, listed by entry. Tags and fused reporters are not part of them.
UniProt O75604, whole entry: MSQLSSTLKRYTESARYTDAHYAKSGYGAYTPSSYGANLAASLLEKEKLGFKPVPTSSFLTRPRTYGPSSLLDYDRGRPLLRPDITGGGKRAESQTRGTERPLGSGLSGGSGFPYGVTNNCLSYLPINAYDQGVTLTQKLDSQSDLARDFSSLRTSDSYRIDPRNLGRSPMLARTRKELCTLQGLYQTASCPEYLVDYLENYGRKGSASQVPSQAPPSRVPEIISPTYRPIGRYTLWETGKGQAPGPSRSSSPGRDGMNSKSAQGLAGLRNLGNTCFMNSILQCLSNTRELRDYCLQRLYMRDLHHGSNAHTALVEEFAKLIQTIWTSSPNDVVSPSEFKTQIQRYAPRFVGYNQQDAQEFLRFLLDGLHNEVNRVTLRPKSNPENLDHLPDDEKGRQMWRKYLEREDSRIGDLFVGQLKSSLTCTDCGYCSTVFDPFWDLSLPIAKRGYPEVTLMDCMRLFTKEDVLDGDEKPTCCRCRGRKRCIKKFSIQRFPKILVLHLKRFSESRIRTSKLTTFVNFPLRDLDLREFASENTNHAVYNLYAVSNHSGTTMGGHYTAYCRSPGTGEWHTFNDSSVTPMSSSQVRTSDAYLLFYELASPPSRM

The list shows a part of the results, in another mix than the full data. Calls of active or inactive are those of the source. The call rests on the fitted dose curve; in most records, active means well fitted inhibition curve with a large enough effect; inconclusive means small, poorly fitted or top-dose-only effect; inactive means no such curve, though single readings can be large or run the other way.

The target of this assay is Ubiquitin carboxyl-terminal hydrolase 2 (Homo sapiens) (UniProt O75604). In words: qHTS Assay for Inhibitors of Ubiquitin-specific Protease USP2a.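 Further: plate controls were DMSO for no effect and NEM full inhibition control for full effect; nearly all actives have a fitted effect of over 60% in size.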 To be noted: USP2a enzymatic assay; at 38.3 µM (top of the series). An excerpt:
NIH Molecular Libraries Screening Centers Network [MLSCN]
NIH Chemical Genomics Center [NCGC]
PI Name: Nicholson, Ben. Progenra Inc, Malvern, PA
Homeostasis of cellular proteins is maintained through a combination of synthesis and degradation. The pathway that accounts for the majority of protein degradation is the ubiquitin-proteasomal pathway. Ubiquitin (Ub) is highly conserved in all cells and the generation of a multi-Ub chain typically targets proteins for degradation by the proteasome. However, ubiquitination is highly reversible and dynamic. Deubiquitination, the reverse process, is catalyzed through the action of enzymes referred to as isopeptidases or deubiquitinating enzymes (DUBs). […]
The reporter enzyme chosen is phospholipase A2 (PLA2), which has an absolute requirement for a free amino terminus. […] Thus, this coupled assay gives a fluorescent read-out, which is generated through the cleavage of the PLA2 reporter enzyme. […]
The assay buffer, prepared fresh at the day of the assay, contains 20mM Tris-HCl pH 8.0, 2mM CaCl2, 2mM beta-Mercaptoethanol, 0.1% DMSO. […] Plates were read immediately (0 Hour) on an Envision (Perkin Elmer) plate reader using the following wavelengths Ex 460nm /Em 535nm. Then, the assay plates were incubated for 2.5 hours and read again on the Envision using the same settings […]
In general terms: qHTS replaces the single test concentration by a dilution series.
Regarding `CN(CCCl)CCCl`, the activity change, negative = inhibition was inactive: 15%.
